In PubChem BioAssay AID903 (National Center for Advancing Translational Sciences (NCATS), 2007) one finds activity change, negative = cytotoxicity data, which are given here for six compounds.

The entries are a selection whose mix differs from that of the whole data set. Inconclusive results are not listed. Calls of active or inactive are those of the source. The call rests on the fitted dose curve; in most records, active means well fitted cell-killing curve with a large enough effect; inconclusive means small, poorly fitted or top-dose-only effect; inactive means no such curve, though single readings can be large or run the other way.

A short description of this assay: qHTS Screen for Compounds that Selectively Target Cancer Cells with p53 Mutations: Cytotoxicity of p53 Null Cells at the Permissive Temperature.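 Further: 0% = DMSO only and -100% = full killing by 100 µM tamoxifen; nearly all actives have a fitted effect of over 55% in size.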 As to conditions: H1299-neo p53 null cells, ATP luminescence, 24 h, 32C; at 46.1 µM (top of the series). An excerpt:
NIH Chemical Genomics Center [NCGC] NIH Molecular Libraries Screening Centers Network [MLSCN] MLSCN Grant: 1 X01 MH079844-01 Assay Submitter (PI): Dr. SUN, YI, University of Michigan NCGC Assay Overview: Synthetic Lethal Screen for Compounds to Kill Cancer Cells with p53 Mutation. Tumor suppressor gene p53 serves as a major cellular barrier against tumorigenesis. […] The goal of this screening is to identify small molecule probes that selectively kill cancer cells with mutations in p53. This screening was carried out using two lines of H1299 lung cancer cells. The H1299-p53 A138V line express a temperature sensitive p53 mutant (p53ts) in which the mutant p53 protein (A138V) is in the mutant confirmation when grown at 39C (the nonpermissive temperature) and in the wild type conformation when grown at 32C (the permissive temperature). A H1299-neo line (p53 null) grown at both 39C and 32C were used as counter-screens to filter out false positive associated with temperature shifting. The small molecular compounds that selectively target mutant p53-containing cancer cells were selected as candidate probes for further study. A cytotoxicity assay based on the measurement of ATP contents in cells was used in this screen. Concentration-responses of all the compounds in the library collection were determined in qHTS using the cell lines and temperature conditions as above.
NCGC Assay Protocol Summary: Both the H1299-p53A138V and H1299-neo cell lines were provided by Dr.Yi Sun, a PI at the University Michigan. The cells were maintained and cultured at 37C. The resuspended frozen cells were used to plate the cells in the 1536-well assay plates at a density of 600 cells per well in 5 ul medium. The assay plates with the cells were incubated at 37C for 16 to 30 hours before the experiments. The library compounds in DMSO solution were added to the cells in assay plates and incubated 24 hours at 39C (for mutant p53 conformation) or 32C (for normal p53 conformation as control). An ATP_lite assay kit (PerkinElmer) was used to determine the cell viability. Tomaxifen (100uM) was used as the positive control for cell killing. Data were normalized to the controls for basal activity (DMSO only) and 100% killing (100uM tamoxifen). AC50 values were determined from concentration-response data modeled with the standard Hill equation. P53 assay protocol: 1. Reagent; 5 uL H1299-p53A138V or H1299-neo cell cells/well 2. Time; overnight; 37C incubation 3. Compounds; 23 nL; 5.9 nM to 46 uM 4. Controls; 23 nL; Tamoxifen 100 uM 5. Time; 24 hr; 32C incubation 6. Reagent; 3 uL; ATP_Lite reagent 7. Time; 20 min; Room Temperature 8. Detection; Luminescence; Viewlux plate reader Keywords: p53, synthetic lethal, cancer, cell viability, cytotoxicity, H1299 cell line, luminescence, MLSMR, MLSCN, NIH Roadmap, qHTS, NCGC
For `CP(=O)(Nc1ccc2c(c1)OCCO2)Oc1ccccc1` (stereo unspecified), the activity change, negative = cytotoxicity was inactive: 9.16%.

As for `CCN(CC)CCCOC(=O)C(O)(c1ccccc1)C1CCCCC1` (stereo unspecified), the activity change, negative = cytotoxicity was inactive: -2.22%.

For `COc1ccc(OP(C)(=O)Nc2ccccc2Br)cc1` (stereo unspecified), the activity change, negative = cytotoxicity was inactive: 9.77%.

In the case of `Cc1cccc(C)c1OP(C)(=O)Nc1ccc(SC(F)(F)F)cc1` (stereo unspecified), the activity change, negative = cytotoxicity is inactive: 1.45%.

`Cc1cc(C)cc(OP(C)(=O)Nc2ccc(SC(F)(F)F)cc2)c1` (stereo unspecified): the activity change, negative = cytotoxicity was inactive: -3.91%.

Take `CCOC(=O)c1ccc(NP(C)(=O)Oc2ccc(OC)cc2)cc1` (stereo unspecified): the activity change, negative = cytotoxicity is inactive: -16.3%.
